For one assay, the target named is SRC (GST-HIS-tag) (Homo sapiens (Human), UniProt P12931). Type of assay: biochemical.
In assay [1] the test system is SIK3 WT and KO MC38 clones. The assay is described as follows: TNF-mediated killing of SIK3 wildtype vs SIK3 knockout MC38 clones (CTG). Type of assay: cell-based, mouse. The conditions noted are these: sub-optimal TNF (<10 ng/ml), 72 h.

Usually IC50 stands for the concentration that inhibits the measured activity by half. Take `Cc1nc(Nc2ncc(C(=O)Nc3c(C)csc3Cl)s2)cc(N2CCN(CCO)CC2)n1` [Compound C7, N-(2-chloro-4-methylthiophen-3-yl)-2-((6-(4-(2-hydroxyethyl)piperazin-1-yl)-2-methylpyrimidin-4-yl)amino)thiazole-5-carboxamide]: the IC50 on SRC (GST-HIS-tag) was below 1.5 nM. Also, the “TNF-mediated killing in SIK3 WT vs KO MC38 clones” value in assay [1] was “induced TNF-mediated killing only in SIK3 WT clones”.

For the origin of these results see patent publication US20230348453A1, “HALOGENATED-HETEROARYL AND OTHER HETEROCYCLIC KINASE INHIBITORS, AND USES THEREOF” (iOmx Therapeutics AG, priority 2020, published 2023).
